scFv variants of Ab-91 (heavy chain) against a SARS-CoV-2 spike peptide

All variants were tested on one target, the spike HR2 peptide PDVDLGDISGINAS (SARS-CoV-2).

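AAYL51 was designed without a model: most single CDR substitutions and a random sample of double and triple ones. AlphaSeq pools MATa yeast showing the antibodies with MATalpha yeast showing the peptide. Mating (16 h, 30 °C) was followed by selection of diploids and sequencing of their barcodes. The ratio of observed to expected reads was calibrated, replicate by replicate, on BCL2-family standards whose Kd was known from biolayer interferometry. The assay was run in three technical replicates.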

Each scFv is VL, three GGGGS repeats, VH, as in the parent Ab-91, and differs from it in the CDRs of the heavy chain only.
VL: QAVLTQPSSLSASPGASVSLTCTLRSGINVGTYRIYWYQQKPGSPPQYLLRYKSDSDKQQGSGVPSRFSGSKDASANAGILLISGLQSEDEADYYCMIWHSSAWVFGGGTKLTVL
VH: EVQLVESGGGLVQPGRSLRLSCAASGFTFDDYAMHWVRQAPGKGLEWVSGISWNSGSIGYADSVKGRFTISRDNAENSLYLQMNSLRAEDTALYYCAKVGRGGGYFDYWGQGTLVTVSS

Variants are written as CDR1, CDR2 and CDR3 of the heavy chain (limits as in the source). Parent: GFTFDDYAMH, GISWNSGSIGYADSVK, VGRGGGYFDY.
Kd is apparent (estimated from mating counts) and averaged on the log scale over replicates with a signal. Smaller is tighter.
An entry "nd" has no value in the source: the pair was not observed among the diploids in any replicate. This suggests poor binding but is not conclusive.
Empty control strains, which show no peptide, gave a signal in 21% of pairings with library AAYL51; the median was 34 µM and 95% of these signals were weaker than 1.8 µM. No background was subtracted. Also given: how often the same scFv was detected with the empty control strains.

CDR-H1,CDR-H2,CDR-H3,apparent Kd,replicates with signal,control signals
GFTFDDYAMH,GIRWNSGSIGYADSVK,VGRGGGYFDD,nd,0/3,0/9
RFTFIDYAMH,GISWNSGSIGYADSVK,VGWGGGYFDY,nd,0/3,0/9
GFTFMDYAMH,GISWNSGSIGYMDDVK,VGRGGGYFDY,nd,0/3,1/9
GFTFDDYAMH,GISWNVGSIGYEDSVK,VGRGGGYFDD,nd,0/3,0/9
GFTFDNYAMH,GISWNSGSIGYADSVY,VGRGGGYWDY,72 nM,3/3,3/9
GFTFDDYAMH,GISWMSGSIGYADSVK,YGRGGRYFDY,nd,0/3,0/9
GFTFDIYAMH,GISWNSGEIGYADVVK,VGRGGGYFDY,470 nM,3/3,4/9
GFEFDDYAMH,GISWNSSSIGYADSVK,VGRGGAYFDY,3.3 µM,1/3,0/9
GFTEDDYAMH,GMHWNSGSIGYADSVK,VGRGGGYFDY,nd,0/3,1/9
GFTFDDYAMH,GCSWMSGSIGYRDSVK,VGRGGGYFDY,nd,0/3,0/9
MFTFDDVAMH,GISWNSGSIGYADSVK,VGRGGGYFDY,nd,0/3,2/9
GFTFDDYYMH,GISWNSGSIGYADSVE,VGQGGGYFDY,220 µM,3/3,7/9
GFTFDDYAMH,YISWNSGSIGYADSVK,DGRGGGYSDY,28 µM,1/3,3/9
GFTFDDYAMH,GISWACGSIGYADSVC,VGRGGGYFDY,120 µM,3/3,7/9
GFTFDDYAMH,GASWNSGSIGYADSVK,VGRGQKYFDY,nd,0/3,0/9
GFTFFDYAMH,GISWPSGSIGYADSVK,VGRGGGYFDY,94 µM,1/3,0/9
GKTFDDYAMH,GISWNSGSIGYADIPK,VGRGGGYFDY,430 µM,2/3,2/9
GFTFDDFAEH,GISWNSGSIGYADSVK,WGRGGGYFDY,nd,0/3,0/9
GRTFDDYAMH,GISWNSGSPGYADSVK,VGRGGGYRDY,nd,0/3,2/9
GFTFDDTAMH,GISWNSGSIGYADSVK,VGYGGGYFDY,65 µM,3/3,2/9
GFTANWYAMH,GISWNSGSIGYADSVK,VGRGGGYFDY,nd,0/3,3/9
GPTFDDYAMH,GISWNSGSIGYSDSVK,SGRGGGYFDY,92 µM,1/3,6/9
GFTFFDQAMH,GISWNSGSISYADSVK,VGRGGGYFDY,300 µM,3/3,3/9
GFTFDHYAMH,GISWNSFSIGYADSKK,VGRGGGYFDY,nd,0/3,0/9

Further variants, results first:

apparent Kd,replicates with signal,control signals,CDR-H1,CDR-H2,CDR-H3
11 µM,3/3,0/9,GFTFDDYAMH,GISMNSGSIGYLDSVK,VGRQGGYFDY
nd,0/3,0/9,GFTFDDYAMH,EISWNSGSIMYADSVK,VGRGGGYTDY
12 µM,3/3,0/9,GETFDDYAMH,GISWNSGHIGYADSVK,VGRGGGYFDY
500 µM,2/3,1/9,GFTDDDYAMH,WISWNSGSIGYADSVK,VGCGGGYFDY
nd,0/3,2/9,QFTFGDYAMH,GISWNSGSIVYADSVK,VGRGGGYFDY
25 µM,2/3,3/9,GFTFDDEAMK,GIGWNSGSIGYADSVK,VGRGGGYFDY
120 nM,3/3,5/9,GFTFDDYAMH,GISWNSGSIGYAASVK,VKRGGGYFDY
nd,0/3,1/9,GFTFDDYAMH,GISWNSGSIGYADSCK,VGRGGGYRDY
21 µM,1/3,0/9,GFTTDDLAMH,GISWNSGSIGYADSIK,VGRGGGYFDY
110 µM,1/3,1/9,GFTFDDYAMD,GSSWNSGSIGYADSVK,VGRGGGFFDY
21 µM,1/3,3/9,GMTFDDYAMH,GWSWNSGSIGDADSVK,VGRGGGYFDY
5.2 µM,1/3,0/9,PFTFDDYAMH,GISWNSGFIGYADSVK,VGRGGDYFDY
nd,0/3,1/9,GFSFDDYCMH,GISWNSGSIGYADSVK,VGRGGGYSDY
4.3 nM,3/3,3/9,GWCFDDYAMH,GISWNSGSIGYADAVK,VGRGGGYFDY
670 nM,3/3,1/9,GFTFEDYAMH,GISWNSTSIGYADSVK,VGSGGGYFDY
23 nM,3/3,4/9,GFTIDDYAMH,GISWNSGSIGYADSVK,VPTGGGYFDY
91 µM,2/3,6/9,GFTFDDYAMH,GISWNYGSIGYADSVK,VGRGGHYFDY
nd,0/3,4/9,GFTFDDYAMH,GISWNSGSRGYAPSVK,VGRGGGYCDY
nd,0/3,2/9,GFTFDDYAMH,GISWYAGSIGYADSVK,NGRGGGYFDY
2.2 µM,3/3,5/9,GFTFDDYAMH,GISWNSGSIGYADDVK,TGRGGGYFDY
nd,0/3,0/9,GKTFDDYAMH,GISWNSGSIGYADSVM,VRRGGGYFDY
nd,0/3,1/9,GFTFDDYAMH,AISWNSGSVGYADSVK,VGRGGGYFDY
27 µM,2/3,3/9,GGTFDDYAMH,GISTNSGSIGYADSVK,VGRGGAYFDY
25 nM,3/3,4/9,GFTFDDYAMH,GISHNSGSIGYEDSVK,VGRGGGSFDY
22 µM,2/3,7/9,GFTFDDYAMH,GICQNSGSIGYADSVK,VGRRGGYFDY

Values reported by Engelhart et al. 2022, doi:10.1038/s41597-022-01779-4 (FLAb copy).